Values quoted from earlier work, collected in publication PMC8876231, “Analogues of Natural Chalcones as Efficient Inhibitors of AKR1C3” (Metabolites, 2022).

System: AKR1C3
Settings: read-out: AKR1C3 IC50; cited from earlier work

Q: For baccharin, which IC50 is on record?
A: Its IC50 is 0.1 µM.
